Test results taken from US20250163068A1, “COMPOUNDS AND THEIR METHODS OF USE” (Praxis Precision Medicines, Inc., priority 2016, published 2025).

Protein sequences, listed by entry. Tags and fused reporters are not part of them.
UniProt Q9UQD0, whole entry: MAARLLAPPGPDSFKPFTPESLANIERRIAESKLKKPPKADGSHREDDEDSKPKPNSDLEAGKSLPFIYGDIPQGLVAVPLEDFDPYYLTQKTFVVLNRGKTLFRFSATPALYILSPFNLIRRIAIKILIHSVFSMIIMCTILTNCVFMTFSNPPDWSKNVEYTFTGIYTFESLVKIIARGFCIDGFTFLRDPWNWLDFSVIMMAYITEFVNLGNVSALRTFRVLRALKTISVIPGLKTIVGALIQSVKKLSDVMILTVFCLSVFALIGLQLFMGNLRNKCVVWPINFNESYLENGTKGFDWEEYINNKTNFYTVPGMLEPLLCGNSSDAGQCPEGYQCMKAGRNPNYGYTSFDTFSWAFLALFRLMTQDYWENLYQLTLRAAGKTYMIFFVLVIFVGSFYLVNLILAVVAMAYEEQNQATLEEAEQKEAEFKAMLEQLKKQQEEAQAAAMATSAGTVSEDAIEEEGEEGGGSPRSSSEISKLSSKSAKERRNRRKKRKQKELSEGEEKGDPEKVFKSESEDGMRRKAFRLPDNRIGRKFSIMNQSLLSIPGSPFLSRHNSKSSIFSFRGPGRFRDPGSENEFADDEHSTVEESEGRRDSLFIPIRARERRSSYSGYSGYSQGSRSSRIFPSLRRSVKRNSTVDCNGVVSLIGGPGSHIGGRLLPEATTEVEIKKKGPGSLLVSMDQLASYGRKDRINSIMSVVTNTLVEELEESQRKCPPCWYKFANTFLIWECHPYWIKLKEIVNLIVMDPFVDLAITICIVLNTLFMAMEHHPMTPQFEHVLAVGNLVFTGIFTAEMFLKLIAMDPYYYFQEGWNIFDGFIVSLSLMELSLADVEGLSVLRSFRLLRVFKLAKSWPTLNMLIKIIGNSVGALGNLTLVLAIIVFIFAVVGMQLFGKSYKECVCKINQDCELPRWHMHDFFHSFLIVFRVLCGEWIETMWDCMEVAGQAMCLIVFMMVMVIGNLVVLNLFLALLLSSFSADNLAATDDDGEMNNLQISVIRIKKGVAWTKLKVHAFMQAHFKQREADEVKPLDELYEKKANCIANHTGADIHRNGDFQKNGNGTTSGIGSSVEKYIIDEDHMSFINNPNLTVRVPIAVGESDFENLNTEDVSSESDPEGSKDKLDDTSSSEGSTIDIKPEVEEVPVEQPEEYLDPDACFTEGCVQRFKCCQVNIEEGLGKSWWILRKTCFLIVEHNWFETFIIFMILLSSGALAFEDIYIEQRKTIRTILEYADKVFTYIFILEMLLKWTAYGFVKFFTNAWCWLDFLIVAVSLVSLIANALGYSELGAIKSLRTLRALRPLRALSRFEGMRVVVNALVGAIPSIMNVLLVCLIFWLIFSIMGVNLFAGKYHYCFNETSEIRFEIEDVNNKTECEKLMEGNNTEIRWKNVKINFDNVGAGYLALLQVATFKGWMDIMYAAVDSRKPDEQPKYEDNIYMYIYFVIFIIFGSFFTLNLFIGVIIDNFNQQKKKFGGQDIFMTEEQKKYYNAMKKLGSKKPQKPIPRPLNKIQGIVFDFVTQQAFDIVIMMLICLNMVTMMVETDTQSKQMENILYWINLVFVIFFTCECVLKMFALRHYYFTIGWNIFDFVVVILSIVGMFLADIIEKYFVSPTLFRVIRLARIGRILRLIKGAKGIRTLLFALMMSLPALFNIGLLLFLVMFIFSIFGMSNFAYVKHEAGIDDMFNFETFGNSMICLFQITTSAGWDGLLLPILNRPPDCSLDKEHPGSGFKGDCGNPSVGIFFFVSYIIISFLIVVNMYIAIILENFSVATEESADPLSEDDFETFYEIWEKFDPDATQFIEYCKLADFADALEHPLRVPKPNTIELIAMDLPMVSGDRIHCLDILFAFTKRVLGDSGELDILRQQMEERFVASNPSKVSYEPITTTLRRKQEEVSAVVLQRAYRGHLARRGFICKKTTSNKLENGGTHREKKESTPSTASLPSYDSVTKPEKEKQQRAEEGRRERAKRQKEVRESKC

Biological target: human Nav1.6 (hNav1.6) (Homo sapiens (Human), UniProt Q9UQD0)
Experiment: Inhibition of late sodium current (INaL) at hNav1.6, PatchXpress electrophysiology
Type: cell-based
Conditions: HEK293, read-out: INaL v1.6 (1 μM, % Inhibition)
Description: Functional characterization of exemplary compounds to modulate INaL expressed by the Nav1.6 voltage-gated sodium channel was accomplished using the PatchXpress™ high throughput electrophysiology platform (Molecular Devices, Sunnyvale, CA). HEK-293 cells expressing recombinant, human Nav1.6 (hNav1.6)were grown in DMEM/high-glucose Dulbecco's modified, 10% FBS, 2 mM sodium pyruvate, 10 mM HEPES and 400 μg/mL G418. Cells were grown to 50%-80% confluency prior to harvesting. […] The onboard liquid handling facility of the PatchXpress was used for dispensing cells and applying test compounds. Nav late currents were evoked by the application of 300 nM ATX-II. […] INaL amplitude and stability were determined by analyzing the mean current amplitude over the final 20 ms of the test pulse. […] Percent steady-state inhibition of INaL was calculated as: [(INaL_compound)/(INaL_control)]*100, where INaL_compound and INaL_control represent INaL recorded in the presence or absence of compound, respectively.

inhibition at 1 µM: < 30%
Structure (SMILES): FC(F)(F)Oc1ccc(-c2ccc3nnc(CC4COC4)n3n2)cc1 [Compound 20]
